The subject of this test is M. tuberculosis MDR. In words: Anti-tuberculosis bioassay (tetrazolium microplate MIC). The format is cell-based. As to conditions: Mycobacterium tuberculosis, read-out: Mycobacterium MIC MDR.

A value given as a limit tells only on which side of the number the result lay.

The values that follow come from patent US9061984B2 (University of Louisville Research Foundation, Inc., priority 2008, dated 2015).

For `COc1cc(/C=N\Nc2ncnc3sc4c(c23)CCCC4)ccc1O` [II-15], the MIC (as a rule, the least concentration at which growth counts as inhibited) is over 25 µg/mL.
